# AlphaSeq binding of Ab-14 light chain variants to a spike HR2 peptide

Antigen: PDVDLGDISGINAS, a 14-residue peptide of the SARS-CoV-2 spike HR2 region.

Each scFv is VH, a 15-residue (Gly4Ser)3 linker, VL, as in the parent Ab-14, and differs from it in the CDRs of the light chain only.
VH: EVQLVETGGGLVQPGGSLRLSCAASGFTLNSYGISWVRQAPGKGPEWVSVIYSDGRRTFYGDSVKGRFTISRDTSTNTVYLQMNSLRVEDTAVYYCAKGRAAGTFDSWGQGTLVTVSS
VL: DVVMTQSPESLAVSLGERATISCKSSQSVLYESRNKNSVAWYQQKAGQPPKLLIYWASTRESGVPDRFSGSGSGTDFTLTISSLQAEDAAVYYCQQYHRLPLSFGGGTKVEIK

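The starting antibody came from a phage panning campaign against this peptide. The library (AAYL50) carries one to three amino acid substitutions per variant, with no insertions or deletions. The assay is AlphaSeq: two haploid yeast populations carry antibody and antigen on their surface. After mating in shaken culture at 30 °C for 16 h, diploids were selected and their barcode pairs sequenced. Scores were corrected for input abundance and mapped to Kd with protein pairs of known affinity run in the same pool. Mating was done three times.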

The parent's light chain CDRs are KSSQSVLYESRNKNSVA, WASTRES, QQYHRLPLS; each variant's own CDRs replace them letter for letter. The read-out is the apparent dissociation constant on a log10 scale (nM): the lower, the stronger. A mean of the replicates is given; it leaves out those without a signal. A pair that was not seen in any replicate is written "no signal"; this usually means weak binding, but a binder can also be missed. Background: pairings of library AAYL50 with three empty control strains gave a value in 18% of cases (median 4.19, 5th percentile 2.99). Values in that range, when seen in few replicates, are hard to tell from nonspecific mating. The control count says in how many pairings with the empty strains this scFv gave a signal.

| # | CDR-L1 | CDR-L2 | CDR-L3 | log10 Kd (nM), mean | replicates with signal | signal with controls |
|---|---|---|---|---|---|---|
| 1 | KSWQSVLYESRNKNSVA | WASTREG | QQYHRKPLS | 3.67 | 3 of 3 | 3 of 9 |
| 2 | KSSQSVLDESRNKNSVA | AASTRES | QQYHKLPLS | -0.11 | 3 of 3 | 5 of 9 |
| 3 | YSSQSVLYESRNKNNVA | WASTRES | QQYERLPLS | 0.81 | 3 of 3 | 2 of 9 |
| 4 | KSSQSVLYESRNKFSVA | WASTSES | QQYHRLPLA | 1.28 | 3 of 3 | 1 of 9 |
| 5 | KSCQSVVYESRNKNSVA | WASTRES | QQYHWLPLS | 2.01 | 3 of 3 | 1 of 9 |
| 6 | KSSQSVLYESHWKNSVA | WASTRES | QYYHRLPLS | no signal | 0 of 3 | 1 of 9 |
| 7 | KSSQSVLYEIRNSQSVA | WASTRES | QQYHRLPLS | 2.90 | 3 of 3 | 6 of 9 |
| 8 | KECQSVLYESRNKNSVA | WASTRES | QQYHRLPLS | 1.45 | 3 of 3 | 0 of 9 |
| 9 | KSSQSVLDESRNKKSVA | WASTREL | QQYHRLPLS | 1.01 | 3 of 3 | 1 of 9 |
| 10 | KSSQSVLYESDNKNCVA | WASTRES | QQKHRLPLS | no signal | 0 of 3 | 0 of 9 |
| 11 | WSSQPVLYESRTKNSVA | WASTRES | QQYHRLPLS | 2.25 | 3 of 3 | 4 of 9 |
| 12 | TSSQSVLYESRNKNSVA | WASTRES | QEYHRLPLV | 3.20 | 3 of 3 | 0 of 9 |
| 13 | KSSQSVLSESRNKNSVA | WCSTRES | QQYHRLPPS | no signal | 0 of 3 | 0 of 9 |
| 14 | KSSQSVLYESLNKNVVA | WASFRES | QQYHRLPLS | 3.93 | 2 of 3 | 2 of 9 |
| 15 | KSSQMVLYESRNKNSVA | WASDRES | QQYHRVPLS | 2.65 | 3 of 3 | 2 of 9 |
| 16 | KSSQSVLYESRNKNSVA | WASTRES | QLYHRLPRY | no signal | 0 of 3 | 0 of 9 |
| 17 | KSSQSVLYCSRNKNSVA | WASTRES | QWYHRLPPS | 4.73 | 3 of 3 | 6 of 9 |
| 18 | KASQSVLYNWRNKNSVA | WASTRES | QQYHRLPLS | 2.60 | 3 of 3 | 0 of 9 |
| 19 | PSSNSVLYESRNKNSVA | WASTRES | QQYKRLPLS | 2.82 | 1 of 3 | 0 of 9 |
| 20 | KSSQSVLYESRNKNLVA | WASTRES | FQYHRLPLS | 4.89 | 1 of 3 | 0 of 9 |
| 21 | KSSQSVLYESRNKNSVA | WASTRWY | QQYHRLPVS | 1.81 | 3 of 3 | 0 of 9 |
| 22 | KSSQSVLYECRNKNSVA | WASTRES | QQYMRLPLL | no signal | 0 of 3 | 1 of 9 |
| 23 | KSSQSVLYESRNKNSVA | WANTRES | QQTHRLPIS | no signal | 0 of 3 | 0 of 9 |
| 24 | KSSQSVLYESRVKNSVA | WAYTCES | QQYHRLPLS | 3.09 | 2 of 3 | 1 of 9 |
| 25 | GSLQSVLYESRNKNSVA | WASGRES | QQYHRLPLS | 4.79 | 1 of 3 | 4 of 9 |
| 26 | KSSQSVLYWSRNKNSVN | WASTRES | QQYHTLPLS | 4.23 | 2 of 3 | 2 of 9 |
| 27 | KSSQSVLYESRNKNSVA | WAMTRES | QQWHRLPLS | 4.88 | 1 of 3 | 2 of 9 |
| 28 | KSSQSVLYESRWKTSVA | WASTRES | QQYHRDPLS | 3.75 | 2 of 3 | 2 of 9 |
| 29 | KSSQSVLYELRNINSVA | FASTRES | QQYHRLPLS | 1.58 | 3 of 3 | 0 of 9 |
| 30 | KSSQSVLYESRNANSVA | WAKTLES | QQYHRLPLS | 1.74 | 3 of 3 | 2 of 9 |
| 31 | KSSQSVLYESRNKNSVH | TASTRES | QQYHRLPLS | 4.43 | 1 of 3 | 1 of 9 |
| 32 | KSSQSVLVESRNKISVA | WASTRES | QQYHRLFLS | no signal | 0 of 3 | 0 of 9 |
| 33 | KSSQSVLYESRNKNSVA | WASTREK | QQYHRKPLD | no signal | 0 of 3 | 0 of 9 |
| 34 | KSSNSVLYESRNKNSVA | WASTRES | QHYHRLPLS | 1.17 | 3 of 3 | 1 of 9 |
| 35 | CSSQSVLYESRNKNSVA | WQSTVES | QQYHRLPLS | 3.17 | 1 of 3 | 3 of 9 |
| 36 | KSSQSVLYESRNTNSVG | WASTRWS | QQYHRLPLS | 1.76 | 3 of 3 | 1 of 9 |
| 37 | KSSQSVLYESRNKNEVA | WMSTRES | QQYHRLPLM | no signal | 0 of 3 | 0 of 9 |
| 38 | KSSQSVLYECRNKNSRA | WASTRES | QQYHREPLS | no signal | 0 of 3 | 0 of 9 |
| 39 | KSSQSVLYESYNKNSVC | WASTRES | QQYHRLPLM | 2.89 | 3 of 3 | 2 of 9 |
| 40 | KSQQSVLYESNNKNAVA | WASTRES | QQYHRLPLS | 0.46 | 3 of 3 | 2 of 9 |
| 41 | KSSQSVRYESRNKNSVA | WASTRNS | QQDHRLPLS | no signal | 0 of 3 | 0 of 9 |
| 42 | KMSQSVLYESRNKNSAA | WASTRES | QQEHRLPLS | 3.59 | 1 of 3 | 3 of 9 |
| 43 | KSSQSVLYESRNKNSVA | WASTRET | QQHHRCPLS | 4.40 | 2 of 3 | 2 of 9 |
| 44 | KSSQSVLYESTNKNSVG | WASTRES | QQYHRLPLF | 4.00 | 3 of 3 | 2 of 9 |
| 45 | KSSQSVLYEDRNKNSFA | WASTRVS | QQYHRLPLS | 1.55 | 3 of 3 | 2 of 9 |

3 of these entries, quoted again:

| CDR-L1 | CDR-L2 | CDR-L3 | log10 Kd (nM), mean | replicates with signal | signal with controls |
|---|---|---|---|---|---|
| KSSNSVLYESRNKNSVA | WASTRES | QHYHRLPLS | 1.17 | 3 of 3 | 1 of 9 |
| KSSQSVLYEIRNSQSVA | WASTRES | QQYHRLPLS | 2.90 | 3 of 3 | 6 of 9 |
| KSSQSVLYWSRNKNSVN | WASTRES | QQYHTLPLS | 4.23 | 2 of 3 | 2 of 9 |

From the AlphaSeq antibody data of Engelhart et al. 2022 (doi:10.1038/s41597-022-01779-4), copy in the FLAb collection.